The values that follow are results of earlier work, collected in patent US5688485A, “Radiolabelled complexes of ester-substituted diaminethiols” (The DuPont Merck Pharmaceutical Company, priority 1992, dated 1997).

The conditions of this data set: in vivo; cited from earlier work.

For “Tc-99m-N,N'-bis(mercaptoacetyl)ethylenediamine [Tc-99m-DADS]”, the “Route / rate of renal elimination” value is listed as “excreted by active tubular secretion” and the renal extraction efficiency entry is reported as “about 53%”.
